Columns and labels:
[1] = biological target: T1, Proteinase-activated receptor 4 (Homo sapiens, UniProt Q96RI0); experiment: Antagonist activity at PAR4 in human platelets assessed as inhibition of gamma-thrombin-induced PAC1 binding response preincubated for 20 mins followed by agonist addition for 20 mins by FITC-based flow cytometric analysis
T1 sequence (Q96RI0 whole entry): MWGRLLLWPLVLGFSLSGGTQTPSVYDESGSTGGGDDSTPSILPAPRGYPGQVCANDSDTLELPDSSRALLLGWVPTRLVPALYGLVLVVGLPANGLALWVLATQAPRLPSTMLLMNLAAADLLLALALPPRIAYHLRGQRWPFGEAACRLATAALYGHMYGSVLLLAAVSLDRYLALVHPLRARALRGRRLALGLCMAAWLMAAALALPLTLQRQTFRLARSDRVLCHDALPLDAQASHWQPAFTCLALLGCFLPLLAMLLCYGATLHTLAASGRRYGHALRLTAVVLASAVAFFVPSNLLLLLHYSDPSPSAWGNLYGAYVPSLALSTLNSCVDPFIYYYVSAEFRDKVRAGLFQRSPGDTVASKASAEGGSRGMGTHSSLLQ
Outline: (§1)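 Human platelets were stimulated with γ-thrombin at 100 nM. Activation was read by flow cytometry as PAC-1 binding and P-selectin surface expression. IC50 and pIC50 were derived from concentration–response data, n=3, reported as mean±SEM.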

[2] = biological target: T1, Proteinase-activated receptor 4; experiment: Antagonist activity at PAR4 in human platelets assessed as inhibition of activating peptide-induced PAC1 binding response preincubated for 20 mins followed by agonist addition for 20 mins by FITC-based flow cytometric analysis
Outline: (§2)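 Human platelets were activated with 200 μM PAR4-AP. The read-outs were PAC-1 binding and P-selectin exposure, measured by flow cytometry. IC50 and pIC50 were taken from concentration–response curves, n=3, mean±SEM.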

[3] = biological target: T1, Proteinase-activated receptor 4; experiment: Antagonist activity at PAR4 in human platelets assessed as inhibition of activating peptide-induced P-selectin activation; outline: as §2
[4] = biological target: T1, Proteinase-activated receptor 4; experiment: Antagonist activity at PAR4 in human platelets assessed as inhibition of gamma-thrombin-induced P-selectin activation; outline: as §1

Structure (SMILES): COc1nn2cc(-c3ccc(F)c(C(F)(F)F)c3)nc2s1
- IC50 ([1]; read-out: IC50): 1.09 µM

Structure (SMILES): COc1nn2cc(-c3ccc(C(F)(F)F)cc3)nc2s1
- IC50 ([2]; read-out: IC50): 0.0156 µM
- IC50 [3]: 0.0112 µM
- IC50 [4]: 0.398 µM

Structure (SMILES): COc1nn2cc(-c3ccc(Cl)c(Cl)c3)nc2s1
- IC50 ([2]; read-out: IC50): 0.0285 µM
- IC50 ([1]; read-out: IC50): 1.46 µM

Structure (SMILES): COc1nn2cc(-c3ccc(OC(F)(F)F)cc3)nc2s1
- IC50 ([2]; read-out: IC50): 0.0277 µM
- IC50 ([2]; read-out: pIC50 (converted)): 0.0269 µM
- IC50 ([1]; read-out: IC50): 0.246 µM
- IC50 ([1]; read-out: pIC50 (converted)): 0.229 µM
- IC50 [3]: 0.0269 µM
- IC50 [4]: 0.352 µM

Structure (SMILES): COc1nn2cc(-c3cccc(C(F)(F)F)c3)nc2s1
- IC50 ([2]; read-out: IC50): 0.0363 µM
- IC50 ([1]; read-out: IC50): 1.31 µM

Structure (SMILES): COc1nn2cc(-c3ccc(Cl)cc3)nc2s1
- IC50 ([2]; read-out: IC50): 0.0395 µM
- IC50 ([1]; read-out: IC50): 0.621 µM
- IC50 [3]: 0.286 µM
- IC50 [4]: 0.621 µM

From ChEMBL document CHEMBL3862030, “Identification of the minimum PAR4 inhibitor pharmacophore and optimization of a series of 2-methoxy-6-arylimidazo[2,1-b][1,3,4]thiadiazoles” (Bioorg Med Chem Lett, 2016)
